{"source": "patent US7452892B2", "about": "“Triazolopyrimidine cannabinoid receptor 1 antagonists” (Bristol-Myers Squibb Company, priority 2005, dated 2008)", "origin": "cited, not measured here", "conditions": "chronic administration for two weeks", "data": [{"smiles": "Cc1c(C(=O)NN2CCCCC2)nn(-c2ccc(Cl)cc2Cl)c1-c1ccc(I)cc1", "note": "[AM-251]", "values": [{"measurement": "adipose tissue mass", "value": "decreased adipose tissue mass"}]}]}
